High-throughput results from PubChem BioAssay.
An excerpt weighted towards active compounds, which were near 13% of everything screened.
Lamin A splicing: changes lamin A minigene splicing in HeLa cells; HeLa LMNA splicing GFP/RFP minigene ratio, 48 h; Potency, µM (highest dose often 46.1 µM), for the others: at the highest dose ratio change, negative = inhibition, usual class: inhibitors; 0.01% of 200,000 active; active means well fitted inhibition curve with a large enough effect in the signal ratio, with a control signal flat, not every such curve was filed as active; inconclusive means small, poorly fitted or top-dose-only effect, or effect the other way, or a change in a side signal; the % refers to the signal ratio; further: potency means the concentration at half of the fitted maximal effect; on the % scale 0 is the no-effect control and ±100 the full control effect
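S3 HeLa cells stably expressing lamin A-EGFP splicing minigene plus DsRed2, 600 cells/well, 48 h compound exposure at 37C. Laser-scanning cytometry; analysed as GFP (500-530 nm)/RFP (575-640 nm) total intensity ratio; 0.5% DMSO vehicle.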
Sfp inh: inhibitors of Bacillus subtilis Sfp phosphopantetheinyl transferase | Biochemical Sfp PPTase activity, qHTS | AID 1490 | Potency, µM, for the others: max response, negative = inhibition, hits mostly inhibitors | actives 3.5% (n = 310,000) | Q9F4F7; active = well fitted inhibition curve with a large enough effect; inconclusive = small, poorly fitted or top-dose-only effect, or another doubt; inactive = no such curve, though single readings can be large or run the other way;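 also: the enzyme is Sfp with the accession as filed and its product quenches rhodamine fluorescence; potency is read from the fitted curve at half-maximal effect; 0% = enzyme reaction without inhibitor and -100% = no enzyme wells; top concentration of the series not given in the record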
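Step 1, compound plus 15 nM Sfp-PPTase, 15 min, room temperature. Step 2, add rhodamine-CoA (5 uM) and BHQ-2-YbbR (12.5 uM). Step 3, read 525/598 nm fluorescence at 0 and 30 min.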
KDM4E inh: inhibitors of human JMJD2E histone demethylase; B2RXH2; JMJD2E catalytic domain, FDH-coupled NADH fluorescence (FDH is formaldehyde dehydrogenase); Potency, µM (highest dose often 57.1 µM), for the others: at the top dose activity change, negative = inhibition, hits mostly inhibitors; 1.6% of 230,000 active; AID 2147; active means well fitted inhibition curve with a large enough effect, not every such curve was filed as active; inconclusive means small, poorly fitted or top-dose-only effect, or another doubt; inactive means no such curve, though single readings can be large or run the other way;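 further: potency means the concentration at half of the fitted maximal effect; 0% = wells with enzyme and -100% = buffer wells without enzyme; nearly all actives have a fitted effect of over 50% in size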
miR-21 reporter: raises the signal of a miR-21 reporter | HeLa miR-21 FLuc reporter, luciferase, 48 h | Potency, µM (highest dose often 38.3 µM), inactives show at the highest dose reporter change, positive = more light | 340,000 tested, under 10 active | AID 2288; active = well fitted rising curve with a large enough effect; inconclusive = small, poorly fitted or top-dose-only effect; inactive = no such curve, though single readings can be large or run the other way;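 note: % of control where 0% means no effect; miR-21 action dims this reporter so a rising signal means less miR-21 action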
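Luminescence from a firefly luciferase reporter carrying a miR-21 binding site downstream, stably expressed under a CMV promoter in HeLa cells that make miR-21 endogenously, reports miRNA modulation after 48 h compound exposure up to approximately 40uM final.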
G9a inh: G9a (human) methyltransferase inhibition. G9a H3K9 monomethylation, AlphaScreen, 2 h. AID 504332. 8.8% of 350,000 active. Q96KQ7. Potency, µM (series often up to 102 µM), inactives show at the top dose activity, negative = inhibition, usual class: inhibitors; further: potency means the concentration at half of the fitted maximal effect; on the % scale 0 is the no-effect control and ±100 the full control effect; nearly all actives have a fitted effect of over 75% in size
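Quantitative HTS format: methyltransferase activity on a biotin-tagged H3K9 peptide is measured by AlphaScreen, using a rabbit anti-monomethyl-H3K9 antibody with streptavidin donor and anti-IgG acceptor beads. Final levels are 20 nM enzyme, 500 nM peptide, 20 uM SAM; 2 h RT.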
ALDH1A1 inh: ALDH1A1 (human) enzyme inhibition; Purified ALDH1A1, NADH fluorescence, propionaldehyde substrate; Potency, µM (titrated, usually from 75.3 µM), for inactives: at the highest dose activity, negative = inhibition, most hits filed as inhibitors; 7.3% of 220,000 active; AID 1030; active means well fitted inhibition curve with a large enough effect, not every such curve was filed as active; inconclusive means small, poorly fitted or top-dose-only effect, or another doubt; inactive means no such curve, though single readings can be large or run the other way;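 further: potency means the concentration at half of the fitted maximal effect; plate controls were no enzyme wells and a reference inhibitor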
Numbers without * were called inactive; ? = inconclusive; · = not tested or not shown; [ ] = dose if it differs, or a comment. Unless noted, the call rests on the fitted dose curve; in most records, active means well fitted curve in the direction sought with a large enough effect; inconclusive means small, poorly fitted or top-dose-only effect, or another doubt; inactive means no such curve, though single readings can be large; an effect the other way counts as inactive or inconclusive.

1) CN1CCN(C(=S)SCc2nc(N)nc(Nc3ccc(F)cc3)n2)CC1
2) COc1ccccc1Nc1nc(N)nc(CSC(=S)N2CCN(c3ccccc3)CC2)n1
3) Cc1ccc(Nc2nc(N)nc(CSC(=S)N3CCN(c4ccccc4)CC3)n2)cc1
4) Cc1ccc(C)c(N2CCN(C(=O)CN3C(=O)COc4ccc(S(=O)(=O)N5CCCC5)cc43)CC2)c1
5) COc1ccc(C(=O)CSc2nnnn2Cc2ccccc2)cc1
6) COC(=O)c1cc(OC)c(OC)cc1NC(=O)CSc1nnnn1Cc1ccccc1
7) O=C(CSc1nnnn1Cc1ccccc1)Nc1ccccc1
8) COc1ccc(OC)c(CCNC(=O)c2c3c(nc4ccccc24)C(=O)N(C2CCCCC2)C3)c1

Assay by compound,1,2,3,4,5,6,7,8
Lamin A splicing,-1%[46 µM],-10%[46 µM],?,·,-8%,-16%,·,-11%[46 µM]
miR-21 reporter,-32%,-3%,-21%,-2%,-3%,0%,-8%,?
G9a inh,-5%,-40%,35µM*,-32%[59 µM],-26%[12.7 µM],8%[12.7 µM],8%[12.7 µM],-3%[59 µM]
Sfp inh,0%,10%,26%,·,-5%,-6%,20%,·
ALDH1A1 inh,-13%,4%,9%,·,13µM*,13µM*,·,·
KDM4E inh,3%,-12%,-2%,·,0%,?,-3%,·

9) CCN(CC)C(=O)CSC1=Nc2ccccc2C2=NC(Cc3c[nH]c4ccccc34)C(=O)N12 (stereo unspecified)
10) CCOc1cc(NC2CS(=O)(=O)CC2O)c(OCC)cc1NC(=O)c1ccccc1 (stereo unspecified)
11) COc1ccc(C(=O)C(=O)c2ccc(OCCO)cc2)cc1
12) COC(=O)c1cccc(NC(=O)c2ccco2)c1
13) O=C(Nc1cc(Br)c(O)c(Br)c1)c1cccc(NC(=O)c2ccco2)c1
14) O=C(Nc1cccc(NC(=O)c2ccco2)c1)c1cccc(Br)c1
15) CC(=O)c1cccc(NC(=O)c2cccc(NC(=O)c3ccco3)c2)c1
16) CC(=O)c1cccc(NC(=S)NNC(=O)c2ccco2)c1

Assay by compound,9,10,11,12,13,14,15,16
Lamin A splicing,4%,-6%,·,-6%,·,·,·,2%[46 µM]
miR-21 reporter,-13%,0%,·,-18%,-1%,0%,0%,-20%
G9a inh,?,34%[59 µM],23%[2.33 µM],-2%[59 µM],40µM*,-2%,45µM*,35µM*
Sfp inh,50µM*,13%,·,16%,?,17%,17%,7%
ALDH1A1 inh,1%,13µM*,·,7%,·,·,·,?
KDM4E inh,-7%,4%,·,-2%,·,·,·,5%

17) CCCC=O
18) COC1(C)CC2C(CC1OC(=O)c1cc([N+](=O)[O-])cc([N+](=O)[O-])c1)C2(C)C (stereo unspecified)
19) COC(=O)c1cc(C(=O)NCC2CCCCC2)cc([N+](=O)[O-])c1
20) CC(=C/C(=O)O)/C=C/c1ccco1
21) O=C(/C=C/c1ccco1)c1cccnc1
22) O=C(Nc1cccnc1)c1ccc(Oc2ccccc2)cc1
23) CC(/C=C/c1ccco1)=N\NC(=O)c1cc(C)[nH]n1
24) Cc1ccc(NC(=O)/C=C/c2ccco2)nc1

Assay by compound,17,18,19,20,21,22,23,24
Lamin A splicing,·,0%,·,3%,·,?,2%,?
miR-21 reporter,·,-3%,0%,9%,-2%,-2%,-8%,2%
G9a inh,·,13µM*,-3%,40µM*,40µM*,?,50µM*,9%[59 µM]
Sfp inh,·,?,-14%,?,50µM*,19%,18µM*,13%
ALDH1A1 inh,3.5µM*,?,·,?,·,4%,-12%,6%
KDM4E inh,·,-19%,·,-6%,·,0%,?,-8%

25) O=C(Nc1cccnc1)c1ccccc1Oc1ccccc1
26) O=C(/C=C/c1ccc(OC(F)F)cc1)Nc1cccc(S(=O)(=O)N2CCOCC2)c1
27) O=[N+]([O-])c1cccc(C2(O)COc3ccccc3O2)c1 (stereo unspecified)
28) CC1CCCC(NC(=O)COC(=O)c2cccs2)C1C (stereo unspecified)
29) CC(/C=C/c1ccco1)=N/NC(=O)c1ccc(C)nc1
30) CC(/C=C/c1ccco1)=N\NC(=O)c1cccnc1
31) COC(=O)/C=C/C(=O)Nc1cccnc1
32) O=C(Nc1cccnc1)C1(F)C(F)(F)C(F)(F)C(F)(F)C(F)(F)C1(F)F

Assay by compound,25,26,27,28,29,30,31,32
Lamin A splicing,-3%,·,·,·,·,16%,?,6%
miR-21 reporter,-2%,23%,-8%,·,-2%,4%,7%,-1%
G9a inh,-5%[12.7 µM],2%[12.7 µM],10%,10%[12.7 µM],-20%,50µM*,50µM*,50µM*
Sfp inh,-25%,19%,20%,·,-7%,56µM*,19%,29%
ALDH1A1 inh,18µM*,·,·,·,·,7.9µM*,-18%,-1%
KDM4E inh,3%,·,·,·,-6%,?,?,-4%

33) O=C(O)/C=C/C(=O)Nc1cccnc1
34) COC(=O)/C=C/C(=O)Nc1ccc(O)c(Cl)c1
35) CCOc1ccc(NC(=O)Cn2cc(S(=O)(=O)N3CCN(c4ccccc4F)CC3)c3ccccc3c2=O)cc1
36) COc1ccccc1N1CCN(CCN2C(=O)C3CCCCN3C2=O)CC1 (stereo unspecified)
37) CC(OC(=O)Cc1c[nH]c2ccccc12)C(=O)Nc1ccccc1F (stereo unspecified)
38) COCCCNS(=O)(=O)c1ccc(N2CCCCS2(=O)=O)cc1
39) Cc1ccc2oc(=O)c3c4cc(O)c(O)c(C)c4oc3c2c1
40) O=C(/C=C/c1ccco1)Nc1cccnc1

Assay by compound,33,34,35,36,37,38,39,40
Lamin A splicing,-9%,?,·,·,·,15%[46 µM],·,·
miR-21 reporter,-1%,-15%,-23%,-4%,·,6%,·,-28%
G9a inh,-13%[59 µM],40µM*,-31%[59 µM],·,-12%,-3%[12.7 µM],·,·
Sfp inh,11%,-19%,·,-10%,·,·,15%,25µM*
ALDH1A1 inh,?,13µM*,·,·,·,·,8%,28µM*
KDM4E inh,?,-4%,·,·,·,·,?,2%

41) CC(/C=C/c1ccco1)=N/NC(=O)OC(C)(C)C
42) CC(/C=C/c1ccco1)=N\NC(=O)c1cc(Cl)ccc1O
43) O=C(O)c1ccccc1C(=O)Nc1ccc(Oc2ccccc2)cc1
44) CC(C)(C)c1ccc(Oc2ccc(NC(=O)c3ccccc3C(=O)O)cn2)cc1
45) Cc1ccc(-n2ncc(C(=O)NCCCN3CCCCC3)c2C2CCN(C(=O)OC(C)(C)C)CC2)cc1
46) C/C(CC(=O)NC1CCCC1)=N\NC(=O)Cc1cccs1
47) O=C(/C=C/c1ccco1)Nc1ccc(N2CCCC2)cc1
48) CC(/C=C/c1ccco1)=N/NC(=O)Cc1cccs1
49) C/C(CC(=O)NC12CC3CC(CC(C3)C1)C2)=N\NC(=O)Cc1cccs1
50) O=C(Cc1cccs1)N/N=C/C=C/c1ccccc1
51) CCc1ccccc1NC(=O)CSc1ncc2c(n1)-c1ccccc1N(Cc1ccc(C)cc1)S2(=O)=O

Assay by compound,41,42,43,44,45,46,47,48,49,50,51
Lamin A splicing,-13%,·,?,25%[46 µM],-13%[46 µM],-4%,-10%,1%,-2%,-6%,·
miR-21 reporter,-54%,-25%,-7%,?,3%,-7%,-61%,-18%,-16%,-43%,8%
G9a inh,71µM*,40µM*,·,56µM*,-5%[59 µM],-17%,0.89µM*,-2%[59 µM],3%[59 µM],?,-3%[59 µM]
Sfp inh,-23%,1%,9%,11%,·,13%,1%,-66%,11%,4%,·
ALDH1A1 inh,1%,-8%,4%,3%,·,4%,-6%,2.8µM*,8.9µM*,11%,·
KDM4E inh,-15%,?,5%,8%,·,16%,0%,-27%,7%,4%,·

Four entries picked at random from the list so far, as already listed:
22) O=C(Nc1cccnc1)c1ccc(Oc2ccccc2)cc1
29) CC(/C=C/c1ccco1)=N/NC(=O)c1ccc(C)nc1
35) CCOc1ccc(NC(=O)Cn2cc(S(=O)(=O)N3CCN(c4ccccc4F)CC3)c3ccccc3c2=O)cc1
41) CC(/C=C/c1ccco1)=N/NC(=O)OC(C)(C)C

Assay by compound,22,29,35,41
Lamin A splicing,?,·,·,-13%
miR-21 reporter,-2%,-2%,-23%,-54%
G9a inh,?,-20%,-31%[59 µM],71µM*
Sfp inh,19%,-7%,·,-23%
ALDH1A1 inh,4%,·,·,1%
KDM4E inh,0%,-6%,·,-15%
